Measured values published in patent US6355473B1, “Yeast cells having mutations in stp22 and uses therefor” (Cadus Pharmaceutical Corp., priority 1998, dated 2002).

Amino acid sequences for entries named in this document (tags omitted). A change or cut given only in a name is not applied to a line headed by its entry.
UniProt P32745: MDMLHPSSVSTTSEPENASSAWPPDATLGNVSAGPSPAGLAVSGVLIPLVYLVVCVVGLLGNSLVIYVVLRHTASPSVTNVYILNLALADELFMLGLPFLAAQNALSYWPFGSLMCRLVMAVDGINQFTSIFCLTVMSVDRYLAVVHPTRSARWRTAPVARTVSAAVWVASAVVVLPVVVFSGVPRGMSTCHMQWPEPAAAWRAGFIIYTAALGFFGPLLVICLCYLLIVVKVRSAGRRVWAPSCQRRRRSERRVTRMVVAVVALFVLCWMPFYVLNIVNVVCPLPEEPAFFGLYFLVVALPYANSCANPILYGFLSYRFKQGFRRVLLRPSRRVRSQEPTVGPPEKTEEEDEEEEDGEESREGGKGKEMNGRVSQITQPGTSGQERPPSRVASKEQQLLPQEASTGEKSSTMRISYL

Target: T1, human somatostatin receptor 3 (hSSTR3) (Homo sapiens, UniProt P32745)
T1 construct: expressed in transfected cells; host or cells: Saccharomyces cerevisiae CY9438 (wild type) and CY12201 (stp22), co-expressing Gpa1A345T with five C-terminal residues of human Gαi2
Assay: FUS1-lacZ β-galactosidase induction assay in yeast expressing αF-hSSTR3
Format: cell-based
Conditions: stp22 vs wild type

Somatostatin-14
decrease of EC50 value, stp22 versus wild type: 50%
increase in the levels of FUS1-lacZ induction, stp22 versus wild type: two-fold
